Apparent affinities of Ab-14 variants for a coronavirus HR2 peptide

Source: Engelhart et al. 2022 (doi:10.1038/s41597-022-01779-4), MIT Lincoln Laboratory and A-Alpha Bio; data file from the FLAb repository.

The target is the same throughout: PDVDLGDISGINAS, from the HR2 region of SARS-CoV-2 spike.

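The starting antibody came from a phage panning campaign against this peptide. In library AAYL49, one, two or three CDR residues were substituted; doubles and triples were drawn at random. Affinity was read by AlphaSeq, a pooled yeast mating assay with surface-displayed partners. Mating (16 h, 30 °C) was followed by selection of diploids and sequencing of their barcodes. The ratio of observed to expected reads was calibrated, replicate by replicate, on BCL2-family standards whose Kd was known from biolayer interferometry. Each pool was mated in three replicate cultures.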

Parent: Ab-14, a human scFv built as VH, a (GGGGS)3 linker, VL. Only the CDRs of the heavy chain vary.
VH: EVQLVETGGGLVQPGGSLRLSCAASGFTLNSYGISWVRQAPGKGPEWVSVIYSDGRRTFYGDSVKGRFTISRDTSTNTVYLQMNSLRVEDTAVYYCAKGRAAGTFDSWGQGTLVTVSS
VL: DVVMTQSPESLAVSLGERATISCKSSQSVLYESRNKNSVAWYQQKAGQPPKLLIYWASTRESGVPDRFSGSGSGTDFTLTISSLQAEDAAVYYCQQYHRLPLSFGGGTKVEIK

Positions count from residue 1 of the parent VH; N30T puts T in place of N.
All variants listed here change F59 of the VH, counted from its first residue.
The Kd shown is the geometric mean over detected replicates; a lower Kd is a better binder.
A pair that was not seen in any replicate is written "nd"; this usually means weak binding, but a binder can also be missed.
Three control strains display no target. For library AAYL49, 15% of the pairings with them gave a signal, with a median of 11 µM and one signal in twenty below 680 nM, so weak values seen in few replicates may be background. The control count says in how many pairings with the empty strains this scFv gave a signal.

changes	apparent Kd	replicates with signal	signal with controls
N30T/R57H/F59Q	nd	0 of 3	0 of 9
I51E/F59G/G99D	nd	0 of 3	0 of 9
T28P/F59L/G61T	120 µM	3 of 3	3 of 9
Y52F/F59Y/D106K	13 µM	1 of 3	4 of 9
F59M/V64A/A101T	89 nM	3 of 3	1 of 9
F59A/S107I	48 nM	3 of 3	0 of 9
F59L	1.3 µM	3 of 3	3 of 9
N30L/I34Y/F59H	12 µM	3 of 3	2 of 9
G33M/F59P/Y60A	nd	0 of 3	2 of 9
F59T/A101P/T104W	320 nM	3 of 3	2 of 9
L29Y/G55K/F59H	nd	0 of 3	0 of 9
D54V/F59N/K65N	450 nM	1 of 3	1 of 9
F27K/S31Q/F59C	310 nM	3 of 3	5 of 9
G33N/F59L/R100S	2.7 µM	1 of 3	3 of 9
I34T/F59R	49 µM	2 of 3	4 of 9
R56M/F59Q	31 nM	3 of 3	1 of 9
R56I/F59K/A102I	nd	0 of 3	2 of 9
F59K/D106S	670 nM	3 of 3	0 of 9
Y32V/F59M/Y60T	9.2 µM	2 of 3	4 of 9
G26R/F59N/A102I	18 µM	3 of 3	5 of 9
F59P/V64R/F105E	15 µM	1 of 3	2 of 9
F59W/Y60E/K65A	13 µM	2 of 3	6 of 9
G26R/I51H/F59H	20 µM	2 of 3	4 of 9
Y52P/F59L/A102K	nd	0 of 3	0 of 9
Y52D/R56V/F59N	nd	0 of 3	0 of 9
F27V/Y32Q/F59N	1.1 µM	3 of 3	1 of 9
F59D/K65L	nd	0 of 3	0 of 9
F59D/K65P/F105V	nd	0 of 3	1 of 9
R56K/F59R/Y60N	nd	0 of 3	1 of 9
R56V/F59N/G61S	14 nM	3 of 3	0 of 9
T28W/F59I/D62S	79 µM	2 of 3	1 of 9
F59Y/A102K/D106F	nd	0 of 3	0 of 9
S31C/F59V	190 nM	2 of 3	0 of 9
R56Q/F59M/G103C	140 nM	3 of 3	3 of 9
R56A/F59Q/R100A	260 nM	3 of 3	0 of 9
I34L/F59H/Y60N	nd	0 of 3	0 of 9
F59Q/G61Q	14 nM	3 of 3	3 of 9
V50D/F59C/K65V	nd	0 of 3	0 of 9
G33D/V50W/F59H	19 µM	1 of 3	2 of 9
I51W/R57T/F59A	nd	0 of 3	0 of 9
D54H/G55S/F59Y	nd	0 of 3	0 of 9
I51L/F59A/D106V	4.9 nM	3 of 3	3 of 9
V50P/F59G/S63M	8.1 µM	2 of 3	3 of 9
I34D/F59R/D106N	460 µM	2 of 3	5 of 9
L29P/F59Y/R100L	3.9 µM	2 of 3	1 of 9

Top 6 of the variants detected in all replicates, tightest first:

changes,apparent Kd,replicates with signal,signal with controls
I51L/F59A/D106V,4.9 nM,3 of 3,3 of 9
R56V/F59N/G61S,14 nM,3 of 3,0 of 9
F59Q/G61Q,14 nM,3 of 3,3 of 9
R56M/F59Q,31 nM,3 of 3,1 of 9
F59A/S107I,48 nM,3 of 3,0 of 9
F59M/V64A/A101T,89 nM,3 of 3,1 of 9